Measurements from ChEMBL document CHEMBL1124267, “Potential antitumor agents. 54. Chromophore requirements for in vivo antitumor activity among the general class of linear tricyclic carboxamides” (J Med Chem, 1988).
“And” between values parts separate entries of the source, which are not always exact repeats. Equal entries are not always repeated.

System: poly[d(A-T)] / poly[d(G-C)]
Experiment: Binding constant for poly[d(A-T)] / poly[d(G-C)] by ethidium displacement

## CN(C)CCNC(=O)c1cccn2c(=O)c3ccccc3nc12
  Log K: 6.14 and 6.23
